Assay results taken from patent US5023271A, “Pharmaceutical microemulsions” (priority 1985, dated 1991).

Test: Stability of tocopherol acetate in human serum
Settings: heparin treated human serum

Structure (SMILES): CC(=O)Oc1c(C)c(C)c2c(c1C)CCC(C)(CCC[C@H](C)CCC[C@H](C)CCCC(C)C)O2 (stereo partly drawn) [tocopherol acetate, α-tocopherol (dl) acetate]
- ratio of α-tocopherol to tocopherol acetate / hydrolysis: The results were the same
